In ChEMBL document CHEMBL3734700, “Design, synthesis and biological activity of 4-[(benzimidazol-1-yl)methyl]biphenyl-2-sulphonamides as dual angiotensin II and endothelin A receptor antagonists” (Medchemcomm, 2015) one finds IC50 data, which are given here for seven molecules.

Chains of the proteins cited; added tags and fusions are not shown.
UniProt P25101, whole entry: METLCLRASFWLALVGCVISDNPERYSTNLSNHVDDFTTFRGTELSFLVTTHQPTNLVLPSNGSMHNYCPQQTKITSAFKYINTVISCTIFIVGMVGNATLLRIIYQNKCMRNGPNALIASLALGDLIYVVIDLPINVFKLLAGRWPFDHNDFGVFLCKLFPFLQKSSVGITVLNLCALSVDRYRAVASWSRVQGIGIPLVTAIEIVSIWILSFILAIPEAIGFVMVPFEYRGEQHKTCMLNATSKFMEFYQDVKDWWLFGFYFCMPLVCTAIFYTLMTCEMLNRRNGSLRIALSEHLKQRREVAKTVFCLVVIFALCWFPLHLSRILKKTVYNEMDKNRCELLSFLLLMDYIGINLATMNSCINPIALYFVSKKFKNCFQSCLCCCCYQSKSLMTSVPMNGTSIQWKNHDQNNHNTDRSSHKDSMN

The first test has as its target Endothelin-1 receptor (Homo sapiens, UniProt P25101). The test is described as follows: Displacement of 125I-labeled endothelin 1 from human ETA receptor expressed in CHO-K1 cells incubated for 4 hrs by gamma counting analysis. Format: cell-based. A general note: Loss of bound radioactivity is the signal in a displacement assay; it reports binding, not function.
The molecule `CCCCC1=NC2(CCCC2)C(=O)N1Cc1ccc(-c2ccccc2S(=O)(=O)Nc2onc(C)c2C)c(CN2CCC(C)(C)C2=O)c1` [BMS-248360] showed an IC50 of 2 nM.

The target of another test is Type-1 angiotensin II receptor (Homo sapiens, UniProt P30556). Description: Displacement of 125I-labeled Sar1-Ile8-angiotensin II from human AT1 receptor incubated for 2 hrs by gamma counting analysis.
`CCCc1nc2c(n1Cc1ccc(-c3ccccc3S(=O)(=O)Nc3onc(C)c3C)c(CO)c1)C(=O)CCCC2` showed a half-inhibitory concentration (IC50) of 30 nM. In other words, the double-digit nanomolar range. The molecule `CCCc1nc2c(n1Cc1ccc(-c3ccccc3S(=O)(=O)Nc3onc(C)c3C)c(C)c1)C(=O)CCCC2` had an IC50 of 2 nM. Compared with the last molecule, the IC50 is about 15-fold lower. On to `CCCc1nc(CC)c(C(N)=O)n1Cc1ccc(-c2ccccc2S(=O)(=O)Nc2onc(C)c2C)c(CC)c1`, for which the IC50 worked out at 1.3 nM.

For the molecule `CCCc1nc(Cl)c(C(N)=O)n1Cc1ccc(-c2ccccc2S(=O)(=O)Nc2onc(C)c2C)cc1`, the IC50 was determined as 21 nM. In the case of `CCCc1nc(CC)c(C(=O)NC)n1Cc1ccc(-c2ccccc2S(=O)(=O)Nc2onc(C)c2C)c(COC)c1`, the IC50 was found to be 8 nM. This IC50 is about 2.6-fold lower than that of the molecule before.

In the case of `CCCCc1nc(Cl)c(C(N)=O)n1Cc1ccc(-c2ccccc2S(=O)(=O)Nc2onc(C)c2C)cc1`, the IC50 came out at 24 nM. `CCCCC1=NC2(CCCC2)C(=O)N1Cc1ccc(-c2ccccc2S(=O)(=O)Nc2onc(C)c2C)c(CN2CCC(C)(C)C2=O)c1` [BMS-248360]: the IC50 was 6 nM.

In general, IC50 refers to the concentration that gives 50% inhibition. Read a low IC50 as higher potency.
